# Patent publication US20120059036A1, “METHOD FOR REDUCING THROMBOCYTOPENIA AND THROMBOCYTOPENIA-ASSOCIATED MORTALITY” (priority 2008, published 2012)
# Tested on: patients experiencing ST-segment elevation myocardial infarction (STEMI)
# Test: MULTISTRATEGY safety analysis: bleeding, transfusion, thrombocytopenia and thrombocytopenia-associated mortality
# Conditions: At 30 d, number of patients
# Experimental: The inclusion criteria were (1) chest pain for longer than 30 minutes with an electrocardiographic ST-segment elevation of 1 mm or greater in two or more contiguous electrocardiogram leads, or with a new left bundle-branch block, and (2) admission either within 12 hours of symptom onset or between 12 and 24 hours after onset with evidence of continuing ischemia. The exclusion criteria included administration of fibrinolytics in the previous 30 days, major surgery within 15 days, and active bleeding or previous stroke in the last six months. Immediately after eligibility criteria were met and before the visualization of coronary arteries through angiography, the treating physician at each investigational site performed open-label assignments of study treatments via sealed envelopes.
# This type of regimen is described in U.S. Pat. No. 6,770,660. Abciximab was administered in a 0.25 mg/kg bolus, followed by 0.125 μg/kg/min continuous infusion for 12 hours. The administration of both drugs began at first medical contact, before arterial sheath insertion. […]
# Discrete data were summarized as frequencies, and comparisons were made with the likelihood-ratio χ^2 test or Fisher exact test. Continuous data were expressed as mean (SD) or median and interquartile range according to their distribution; comparisons were made with a one-way analysis of variance or the Kruskal-Wallis test.
compound,measurement,value
CCCCS(=O)(=O)N[C@@H](Cc1ccc(OCCCCC2CCNCC2)cc1)C(=O)O.Cl.O [Tirofiban Plus Uncoated Stent],Moderate thrombocytoperia (<100000 cells/mm^3),1 No.
same,Severe thrombocytoperia (<50000 cells/mm^3),2 No.
